The record followed here is patent publication US9012461B2 (dated 2015).

Chains of the proteins cited; added tags and fusions are not shown. A line that says so, or that is headed by a name, gives the form on record, which may keep a tag or linker.
UniProt P35916, other isoform, or with tags, fused parts or gaps del 949-1002: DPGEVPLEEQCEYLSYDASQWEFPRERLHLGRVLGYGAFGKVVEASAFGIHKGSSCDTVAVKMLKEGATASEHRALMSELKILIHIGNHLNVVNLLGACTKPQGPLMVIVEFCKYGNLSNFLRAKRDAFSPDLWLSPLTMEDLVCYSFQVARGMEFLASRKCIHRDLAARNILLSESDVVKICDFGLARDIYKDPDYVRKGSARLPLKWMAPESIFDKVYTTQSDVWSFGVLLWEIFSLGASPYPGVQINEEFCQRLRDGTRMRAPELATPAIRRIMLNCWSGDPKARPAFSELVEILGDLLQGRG

pIC50: −log10 of the molar value.

The target of this test is VEGFR3 cytoplasmic domain (amino acids 818-1177, lacking 949-1002 of UniProt accession number P35916) (Homo sapiens (Human), UniProt P35916, DEL949-1002). The following applies: values marked *: modified assay, N-terminal Hexa-His-fusion protein.

For the compound `NC(=O)Cc1cccnc1CCc1nc(Nc2ccc(C3CCCNC3)cc2)ncc1C(F)(F)F` (stereo not shown) [Compound 39, 2-(2-(2-(2-((4-(Piperidin-3-yl)phenyl)amino)-5-(trifluoromethyl)pyrimidin-4-yl)ethyl)pyridin-3-yl)acetamide], the pIC50 is 7.64.

The term pIC50 denotes the negative decadic logarithm of the IC50, by convention in mol/L. Higher therefore signals a small IC50.
